# Hits are enriched below; roughly 1.3% of the tested compounds scored in any of these assays.
# UUG fidelity – modulators of start codon recognition fidelity in yeast; AID 602363; activity score, % at 18.7 µM; S. cerevisiae UUG-firefly luciferase reporter, luminescence/redox ratio; actives 0.13% (n = 350,000);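 active = replicate mean at a twofold rise or more, about +100% in these data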;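 note: firefly luciferase made from a UUG start codon reports start codon fidelity; reporter light over untreated wells divided by growth signal over untreated wells; some hits fall short of that in this replicate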
# SR-BI HDL uptake – mouse SR-BI HDL lipid transfer inhibition; AID 488896; ldlA[mSR-BI] CHO cells, DiI-HDL uptake fluorescence, 3 h; inhibition, % at 12.5 µM; Q61009; hit rate 0.96% among 320,000;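 active = mean replicate inhibition of at least 70% and a set share of replicates each scoring 70 or more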;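 also: 0% = median of neutral control wells and 100% = median of positive control wells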
# INS-1E GSIS act – GLuc luminescence reporter in INS-1E cells, primary screen for activators of glucose-dependent secretion of insulin; INS-1E GLuc reporter insulin secretion, 2-3 h; activation, % at 16.6 µM; hit rate 0.61% among 370,000; AID 743287;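 active = lowest replicate activation of at least 40%, so every replicate reaches that level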;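 also: 0% = median of neutral control wells and 100% = median of IBMX positive control wells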
# SR-BI uptake up – enhances SR-BI lipid uptake from DiI-HDL | activation, % at 12.5 µM | hit rate 0.096% among 320,000 | AID 504775 | CHO ldlA[mSR-BI] cells, DiI-HDL uptake fluorescence, 3 h; 100 = double the neutral-control signal;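 active = mean replicate activation of at least 60% and every replicate at or above 60%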;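 also: 0% = median plate neutral-control signal and 100% = twice that signal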
#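 Material: SR-BI-overexpressing, LDLR-lacking CHO cells | Dosing: Single compound concentration, delivered by pin transfer | Probe or stimulus: Labelled HDL, 10 µg/mL | Signal: Bottom-read cell fluorescence after medium removal, ex 550/em 595 nm | Schedule: 3 h, 37 °C | Evaluation: HDL uptake via cellular fluorescence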
# Starred values were filed as active, the others as inactive; x = no result given; + = active, no number.
SMILES,UUG fidelity,SR-BI HDL uptake,INS-1E GSIS act,SR-BI uptake up
C=CCN=C1CC(C)(C)C(C(=O)OC)C(O)=C1C(=O)CCC (stereo unspecified),x,5,73*,-5
O=C(CSc1nnc(SCc2ccc(Cl)cc2)s1)N/N=C/c1c[nH]c2ccccc12,x,x,96*,x
O=C(CSc1nnc(SCc2cccc3ccccc23)s1)N/N=C/c1c[nH]c2ccccc12,x,-17,-16,17
Cc1ccc(CN(C(=O)c2cc(=O)c3cc(C)cc(C)c3o2)C2CCS(=O)(=O)C2)cc1 (stereo unspecified),2,x,29,x
Cc1cc(C)c2oc(C(=O)N(Cc3ccc(F)cc3)C3CCS(=O)(=O)C3)cc(=O)c2c1 (stereo unspecified),0,-5,63*,5
CCOC(=O)c1c(NC(=S)Nc2ccccc2)sc2c1CC(C)(C)SC2,x,95*,1,-95
CCOC(=O)c1c(NC(=O)Nc2ccccc2)sc(C)c1C,-21,85*,19,-85
CCOC(=O)Nc1sc(C)c(C)c1C(=O)OCC,x,8,5,-8
CCC(Sc1nc(C)cc(C)n1)C(=O)Nc1nccs1 (stereo unspecified),-12,42,55*,-42
CN(C(=O)COC(=O)c1ccccc1Nc1ccccc1)c1c(N)n(Cc2ccccc2)c(=O)[nH]c1=O,-5,72*,-5,-72
C[C@@H]1CN([C@H](C)CO)S(=O)(=O)c2ccc(C#CCN(C)C)cc2O[C@@H]1CN(C)CC1CC1,67,x,3,x
Oc1ccc(C[C@@H]2CNCCN2CCc2cc(C(F)(F)F)cc(C(F)(F)F)c2)cc1,-9,-27,-17,27
FC(F)(F)c1cc(CCN2CCNC[C@H]2Cc2cccc3ccccc23)cc(C(F)(F)F)c1,-3,-41,+,41
N#CCc1nn(-c2ccccc2)c2ncnc(N)c12,x,-1,71*,1
CCc1ccc(C(=O)COC(=O)c2cc([N+](=O)[O-])ccc2N2CCOCC2)cc1,11,81*,7,-81
CC(NC(=O)COC(=O)c1cc([N+](=O)[O-])ccc1N1CCOCC1)c1ccc(F)cc1 (stereo unspecified),x,32,-5,-32
O=C(OCc1ccc(Br)cc1)c1cc([N+](=O)[O-])ccc1N1CCOCC1,-12,x,x,x
CCc1cccc(C)c1NC(=O)COC(=O)c1cc([N+](=O)[O-])ccc1N1CCOCC1,x,72*,5,-72
O=C(COC(=O)c1cc([N+](=O)[O-])ccc1N1CCOCC1)c1ccc(F)cc1,-5,84*,16,-84
C[C@@H]1CN([C@H](C)CO)C(=O)CCCn2nncc2CO[C@@H]1CN(C)Cc1ccc2c(c1)OCO2,-8,x,7,x
C[C@H](CO)N1C[C@H](C)[C@H](CN(C)Cc2ccncc2)Oc2cc(-c3ccccc3)ccc2S1(=O)=O,27,x,-30,x
COCCNc1nc(N)c([N+](=O)[O-])c(NCC2CCCO2)n1 (stereo unspecified),-12,-17,54*,17
Nc1nc(NCC2CCCO2)nc(Nc2ccc(F)cc2)c1[N+](=O)[O-] (stereo unspecified),-18,19,-2,-19
Cc1ccc(Nc2nc(NCC3CCCO3)nc(N)c2[N+](=O)[O-])cc1 (stereo unspecified),x,53,81*,-53

# Single values from the list:
# Value for CCc1cccc(C)c1NC(=O)COC(=O)c1cc([N+](=O)[O-])ccc1N1CCOCC1 under INS-1E GSIS act: 5
# Value for COCCNc1nc(N)c([N+](=O)[O-])c(NCC2CCCO2)n1 (stereo unspecified) under SR-BI HDL uptake: -17

# New compounds follow.
SMILES,UUG fidelity,SR-BI HDL uptake,INS-1E GSIS act,SR-BI uptake up
Cc1ccc(S(=O)(=O)Nc2cccc3c2O[C@H](CN(C)C(=O)NC(C)C)[C@@H](C)CN([C@H](C)CO)C3=O)cc1,14,x,4,x
CCOC(=O)c1sc(-c2ccccc2)cc1NC(=O)Nc1ccc([N+](=O)[O-])cc1,x,78*,x,-78
CCOC(=O)c1sc(-c2ccccc2)cc1N,-7,-3,x,3
CCOC(=O)c1c2n(c3ccc(OC(C)=O)cc13)CCC2,-8,-12,48*,12
Cc1ccc2nc(N3CCN(C(=O)CCCC(=O)O)CC3)nc(-c3ccccc3)c2c1,12,26,57*,-26
CCn1cc(C(=O)NP(=O)(Nc2ccc(C)cc2)Nc2ccc(C)cc2)c2ccccc21,-8,-165,26,165*
CCn1cc(C(=O)C(F)(F)F)c2ccccc21,-7,8,x,-8
Cc1ccnc(Nc2nc(-c3ccc(O)cc3O)cs2)c1,-5,83*,-8,-83
Cc1ccnc(Nc2nc(-c3ccc(O)cc3)cs2)c1,-27,25,2,-25
C[C@@H]1CN([C@H](C)CO)C(=O)Cc2cc(NC(=O)CCN3CCOCC3)ccc2O[C@@H]1CN(C)Cc1ccc(-c2ccccc2)cc1,x,x,-1,x
CC(C)C#Cc1ccc2c(c1)O[C@H](CN(C)C(=O)NC(C)C)[C@@H](C)CN([C@@H](C)CO)S2(=O)=O,26,x,1,x
NNc1nc(-c2ccccc2)c2ccccc2n1,x,0,44*,0
OCCNc1nc(-c2ccccc2)c2ccccc2n1,-11,2,x,-2
O=C(Nc1ccc(C(=O)N2CCOCC2)cc1)c1cc(-c2cccnc2)nc2ccc(Cl)cc12,-9,79*,-10,-79
CC(=O)Nc1cccc(NC(=O)c2cc(-c3cccnc3)nc3ccc(Cl)cc23)c1,x,73*,-1,-73
COc1ccc2c3c([nH]c2c1)[C@H](CO)N(C(=O)c1cccnc1)CC31CCN(C(=O)c2cccnc2)CC1,x,x,17,x
CCN(CC)CCNCc1ccc(Br)cc1OCC(=O)NCc1ccccc1,-11,x,62*,x
CCCCCCCCOC(=O)C1=C(C)Nc2nnnn2C1c1cccs1 (stereo unspecified),-10,-6,43*,x
COc1ccc2c3c(n(C)c2c1)[C@@H](CO)N(S(C)(=O)=O)CC31CCN(C(=O)Nc2cccc(F)c2)CC1,x,x,-13,x
CCOc1ccccc1C(=O)NCC(=O)OCCCOC(=O)CNC(=O)c1ccccc1OCC,-13,84*,16,-84
CCOc1ccc(C(=O)NCC(=O)OCCN2C(=O)c3ccccc3C2=O)cc1OCC,14,33,57*,-33
CCOc1ccccc1C(=O)NCC(=O)OCCOc1cccc(Cl)c1,2,-4,-7,4
O=C(CNC(=O)c1ccc(Cl)cc1)OCCN1C(=O)c2ccccc2C1=O,-21,0,7,0
CCCc1cc(NCCOCCO)n2c(nc3ccccc32)c1C#N,-19,x,x,x

# SR-BI uptake up: entries above that show a hit.
SMILES,UUG fidelity,SR-BI HDL uptake,INS-1E GSIS act,SR-BI uptake up
CCn1cc(C(=O)NP(=O)(Nc2ccc(C)cc2)Nc2ccc(C)cc2)c2ccccc21,-8,-165,26,165*

# (further entries)
SMILES,UUG fidelity,SR-BI HDL uptake,INS-1E GSIS act,SR-BI uptake up
CC(C)c1cc(NCCOCCO)n2c(nc3ccccc32)c1C#N,x,-20,52*,20
CCCNC(=O)[C@H]1[C@H](CO)[C@H]2Cn3c(ccc(C4=CCCC4)c3=O)[C@H]2N1C(=O)C1CC1,x,x,-2,x
CCCCc1ccc(N=N/C(C(=O)Nc2ccc(NC(C)=O)cc2OC)=C(/C)O)cc1,-7,78*,-1,-78
O=C(NC1CCC1)[C@@H]1[C@@H](CO)[C@@H]2Cn3c(cccc3=O)[C@@H]2N1CC1CCOCC1,-14,x,11,x
Cc1nn2c(-c3cccc(NC(=O)CSc4nc5ccccc5o4)c3)nnc2c2ccccc12,-19,76*,x,-76
Cc1cccc(NC(=O)CSc2nc3ccccc3o2)c1,-16,-4,x,4
O=c1cc(N2CCOCC2)[nH]c(=O)n1Cc1ccc(F)cc1,6,-231,-9,231*

# A second format for part of the listing above:
# Value order: UUG fidelity | SR-BI HDL uptake | INS-1E GSIS act | SR-BI uptake up
- CCOc1ccccc1C(=O)NCC(=O)OCCOc1cccc(Cl)c1
  2 | -4 | -7 | 4
- CCOc1ccccc1C(=O)NCC(=O)OCCCOC(=O)CNC(=O)c1ccccc1OCC
  -13 | 84* | 16 | -84
- CCOC(=O)c1sc(-c2ccccc2)cc1N
  -7 | -3 | x | 3
- O=C(OCc1ccc(Br)cc1)c1cc([N+](=O)[O-])ccc1N1CCOCC1
  -12 | x | x | x

# High-throughput results: PubChem BioAssay, Broad Institute
